Measured values from paper PMC4007590, “Development of an oligonucleotide-based fluorescence assay for the identification of tyrosyl-DNA phosphodiesterase 1 (TDP1) inhibitors” (Analytical Biochemistry, 2014).
pIC50: −log10 of the molar value.

The chains behind the UniProt entries cited, without tags or fusion partners. Residues count along the entry.
UniProt Q9NUW8, 149-608 limits assumed: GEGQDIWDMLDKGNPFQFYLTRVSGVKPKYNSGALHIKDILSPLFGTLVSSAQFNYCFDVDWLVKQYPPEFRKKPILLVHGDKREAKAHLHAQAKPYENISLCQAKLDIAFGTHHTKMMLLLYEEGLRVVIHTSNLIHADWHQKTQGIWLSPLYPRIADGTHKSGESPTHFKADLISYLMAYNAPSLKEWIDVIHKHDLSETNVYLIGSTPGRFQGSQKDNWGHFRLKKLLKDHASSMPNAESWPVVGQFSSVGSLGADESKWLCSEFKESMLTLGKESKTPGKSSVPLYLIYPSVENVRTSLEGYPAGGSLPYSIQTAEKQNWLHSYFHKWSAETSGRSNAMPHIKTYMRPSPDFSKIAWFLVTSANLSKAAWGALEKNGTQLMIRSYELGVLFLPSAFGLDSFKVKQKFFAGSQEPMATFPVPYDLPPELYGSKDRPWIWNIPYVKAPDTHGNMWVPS

Biological target: T1, tyrosyl-DNA phosphodiesterase 1 (TDP1) (Homo sapiens, UniProt Q9NUW8)
T1 construct: catalytic domain of human TDP1
Assay: Gyrasol fluorescence quench assay, FITC-phosphotyrosyl […]mer oligonucleotide substrate, recombinant TDP1
Format: biochemical

## O=C(O)C1=CC(=C(c2ccc(O)c(C(=O)O)c2)c2ccc(O)c(C(=O)O)c2)C=CC1=O [aurintricarboxylic acid]
  pIC50: 7.66
